“And” between values parts separate entries of the source, which are not always exact repeats. Identical values can stand only once. Only a part is listed here, and it is no random draw. The source made the active and inactive calls.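 How the source made its calls: active means inhibition above the screen-wide mean plus 3 SD, computed separately per campaign (cut at about 16% in these data); inactive means the rest.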
What follows are molecules tested on Heat shock protein HSP 90 (rabbit reticulocyte lysate; luciferase refolding) (assay: inhibitors of HSP90 chaperone activity – cell lysate, luminescence, primary screen (AID 1789;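 further: 0% = DMSO wells and 100% = 60 µM geldanamycin wells; inhibitors lower the luminescence because luciferase stays unfolded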)). Conditions: 3 h, at 5.6 µM, stronger effect = higher value.

Compound | inhibition
O=C(O)c1ccccc1[As](=O)(O)O | active: 75.2%
CC(=O)Nc1ccc([As](=O)(O)O)cc1 | inactive: 0.41%
O=P(Nc1nc2ccc(Cl)cc2s1)(c1ccccc1)c1ccccc1 | inactive: 1.38%
Cc1ccc(NP(=O)(Oc2ccccc2F)Oc2ccccc2F)nc1 | inactive: 0.27%
CCOP(=O)(Nc1ccccc1)OCC | inactive: -4.2% and inactive: -2.08%
Cc1cc(SC(NC(=O)c2ccc(F)cc2)C(Cl)(Cl)Cl)ncn1 (stereo unspecified) | inactive: -2.73%
O=[N+]([O-])c1cc([N+](=O)[O-])c(CCN2CCOCC2)c([N+](=O)[O-])c1 | inactive: -1.22%
CCN(N=Nc1nonc1N)c1nonc1N | inactive: -4.28%
Nc1cccc2ccc([As](=O)(O)O)cc12 | inactive: 5.15%
NC(=O)c1cc([N+](=O)[O-])cc([N+](=O)[O-])c1N | inactive: -0.7%
Cc1ccc(N/C(=N/P(=O)(N2CCOCC2)N2CCOCC2)N2CCOCC2)cc1 | inactive: 0.52%
Cc1ccc(OP(=O)(Nc2nccs2)Oc2ccc(C)cc2)cc1 | inactive: 2.47%
COc1ccccc1OP(=O)(Nc1ccc(C)cn1)Oc1ccccc1OC | inactive: 2.16%
Clc1ccc(Cl)c(NC2=NCC(CBr)S2)c1 (stereo unspecified) | inactive: -1.66%
CN1CCCC(OC(=O)C(c2ccccc2)c2ccccc2)C1 (stereo unspecified) | inactive: -2.72%
CC(C)CC(=O)NC(Sc1ccc(Cl)cc1)C(Cl)(Cl)Cl (stereo unspecified) | inactive: 0.74%
Nc1cc(N)c2nonc2c1[N+](=O)[O-] | inactive: -7%
Cc1c2non([O-])c-2c(C)[n+](=O)[n+]1[O-] | inactive: 6.02%
O=C(NC(Sc1ccncn1)C(Cl)(Cl)Cl)c1ccccc1 (stereo unspecified) | inactive: 1.33%
Oc1ccccc1CNc1ccccn1 | inactive: 3.52%
COc1ccc(C2=NCC(CBr)S2)cc1 (stereo unspecified) | inactive: -3%
CC(=O)N1C2C3N(C(C)=O)C1C1N(C(C)=O)C(C(N1C(C)=O)N3C(C)=O)N2C(C)=O | inactive: -1%
O=[N+]([O-])c1cccc2n[nH]nc12 | inactive: -1.29%
O=[N+]([O-])c1cc([N+](=O)[O-])c(CCNc2ccccc2)c([N+](=O)[O-])c1 | inactive: 6.65%
CCc1nc2c(n1)c1c(non1O)c1c2no[n+]1[O-] | inactive: 2.63%
Cc1ccc(NP(=O)(Oc2ccccc2)Oc2ccccc2)nc1 | inactive: 2.54%

Compound | inhibition
C[N+]1=C2C=CC=CC=C2SC12C([N+](=O)[O-])=CC([N+](=O)[O-])=C[C-]2[N+](=O)[O-] (stereo unspecified) | inactive: 9.62%
Nc1ccc([As](=O)(O)c2ccc(N)cc2)cc1 | inactive: 5.56%
CCN(/C(=N/P(=O)(N1CCOCC1)N1CCOCC1)N1CCOCC1)c1ccc(OC)cc1 | inactive: 4.02%
CN(C)C(=O)OCCc1n(C)cc[n+]1C | inactive: -1.08%
CC(C)=N/N=C(\N)N[N+](=O)[O-] | inactive: -0.76%
CC1CCN(C(=O)Oc2c(Cl)cc(Cl)c3cccnc23)CC1 | inactive: 3.19%
O=C(Nc1cc([As](=O)(O)O)ccc1O)c1ccccc1 | inactive: -0.73%
CC(C)(C)C(=O)NC(Sc1ccncn1)C(Cl)(Cl)Cl (stereo unspecified) | inactive: 3.09%
O=[N+]([O-])c1ncn(CCn2ncnc2[N+](=O)[O-])n1 | inactive: -3.98%
O=[N+]([O-])c1cccc(NC2=NCC(CBr)S2)c1 (stereo unspecified) | inactive: 3.97%
O=C(O)CNc1ccc([As](=O)(O)O)cc1 | inactive: -2.5%
CN(C)C1(CNC(=O)c2ccc(Cl)c(S(N)(=O)=O)c2)CCCCC1 | inactive: 1.7%
O=P(Nc1ccccn1)(c1ccc(Br)cc1)c1ccc(Br)cc1 | inactive: 4.73%
O=P(Nc1nc2ccccc2s1)(c1ccccc1)c1ccccc1 | inactive: 1.85%
O=[N+]([O-])c1ncn(CCn2cnc([N+](=O)[O-])n2)n1 | inactive: -2.8%
CC(=O)NC(SC(=S)N(C)C)C(Cl)(Cl)Cl (stereo unspecified) | inactive: 0.27%
O=[N+]([O-])c1ccc(O)c(/C=N/Nc2ccc([N+](=O)[O-])cc2[N+](=O)[O-])c1 | inactive: -5.95%
O=[As](O)(c1ccccc1)c1ccc(O)cc1 | inactive: 4.26%
Nc1ccc([As](=O)(O)c2ccc([N+](=O)[O-])cc2)cc1 | inactive: -2.31%
C(Cc1nn[nH]n1)Cc1nn[nH]n1 | inactive: -3.51%
O=C(OC1CN2CCC1CC2)c1cccc(Cl)c1 (stereo unspecified) | inactive: 4.53%
O=P(Nc1nccs1)(c1ccccc1)c1ccccc1 | inactive: 10.1%
CC(C)C(=O)NC(Sc1ccccc1)C(Cl)(Cl)Cl (stereo unspecified) | inactive: -5.49%
c1nnnn1CCn1cnnn1 | inactive: -3.54%
CCOc1ccc(C2=NCC(CBr)S2)cc1 (stereo unspecified) | inactive: 3.44%

Source: PubChem BioAssay AID1789 (The Scripps Research Institute Molecular Screening Center, 2009)
